## Yeast mating assay 2: variants of the scFv Ab-91

Target peptide (SARS-CoV-2 spike, HR2 region): PDVDLGDISGINAS

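The starting antibody came from a phage panning campaign against this peptide. AAYL51 was designed without a model: most single CDR substitutions and a random sample of double and triple ones. Affinity was read by AlphaSeq, a pooled yeast mating assay with surface-displayed partners. Binding brings cells together so that they mate, and sequencing counts the barcode pairs among the diploids. Read counts were normalised to the haploid input and turned into Kd by a linear fit to BCL2-family pairs of known affinity, for each replicate. There are three technical replicates.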

Parent: Ab-91, a human scFv built as VL, a (GGGGS)3 linker, VH. Only the CDRs of the heavy chain vary.
VL: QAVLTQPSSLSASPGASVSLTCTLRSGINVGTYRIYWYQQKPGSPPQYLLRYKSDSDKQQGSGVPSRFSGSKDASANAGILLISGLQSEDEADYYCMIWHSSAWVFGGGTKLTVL
VH: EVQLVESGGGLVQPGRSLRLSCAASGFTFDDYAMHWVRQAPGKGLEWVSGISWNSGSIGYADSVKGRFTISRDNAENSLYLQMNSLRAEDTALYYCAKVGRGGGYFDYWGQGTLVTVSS

Each variant is given by its three heavy chain CDRs, as the data file delimits them; those of the parent are GFTFDDYAMH, GISWNSGSIGYADSVK, VGRGGGYFDY.
Every variant below is changed at Y108 of the VH (sequential numbering).
Scale: log10 of Kd in nM, estimated from mating counts; low values are strong binders.
"nd" marks a missing value. The strain was present, yet no cells mated with the target were sequenced in that replicate, which points to weak or no binding.

With GFTFDDYAMH / RISWNSGSIGYADSVK / VGRNGGYFDE the result was nd, nd, nd.
With GGTFDDYAMH / GISWNSGSFGYADSVK / VGRGGGYFDC the result was 1.71, 1.53, 1.02.
With GFTFDDYAMH / GISWNSGSSGYADSYK / VGRGGGYFDK the result was 2.43, 2.88, 3.45.
With GFTFDDYAMH / GISWNSGSIGYADSVK / VGRGGGYFDC the result was nd, 4.81, nd.
With GFTFDDYAMH / GIVWNSGSTGYADSVK / VGRGGGYFDT the result was 4.43, nd, 4.47.
With GFTFDDIALH / GISWNSGSIGYADSVK / VGRGGGYFDK the result was nd, nd, nd.
With GFTFDDYAMH / GPSWNSGSIGYADSVK / VGRGGGYFDG the result was nd, nd, nd.
With GFTFDDYAMH / GISWNSGSICYADSVK / VFRGGGYFDF the result was nd, nd, nd.
With GFTFDDYAMH / GISWNSGSIGYLDSVK / SGRGGGYFDC the result was 4.89, 5.36, 4.25.
With GFTFDDYAMH / GISWNSGSIGYAQSVK / HGRGGGYFDC the result was nd, nd, nd.
With GFTIGDYAMH / GISWNSGSIGYADSVK / VGRGGGYFDA the result was nd, nd, nd.
With GFQFDDYAMC / GISWNSGSIGYADSVK / VGRGGGYFDA the result was 3.82, nd, nd.
With GFTFDDYAMH / GISLNSGSIGYADSVK / VGRGGIYFDD the result was 4.47, 3.89, 4.43.
With GFTFDDYAMH / GFSNNSGSIGYADSVK / VGRGGGYFDC the result was nd, 4.44, 3.20.
With GFTFFDLAMH / GISWNSGSIGYADSVK / VGRGGGYFDQ the result was 4.02, nd, nd.
With GFTFDDYAMH / GISWNKGSIGYADSVK / VGRGGCYFDN the result was nd, nd, nd.
With GMTFDDYAMH / GISWNSGSIPYADSVK / VGRGGGYFDL the result was nd, nd, nd.
With GFTFWDYAMH / GISWNSGSIGYADSVK / SGRGGGYFDW the result was 5.16, 5.70, nd.
With GFTFDDYAMH / GISWNSGSIGRAYSVK / VGRGGGYFDD the result was 4.79, nd, 4.65.
With GFSFDDYAMH / GISWNSGSIGYADSVK / VGRGGGYFDK the result was 1.26, 1.26, 0.96.
With GFTFDDYATH / GISPNSGSIGYADSVK / VGRGGGYFDW the result was 4.06, 4.46, 4.22.
With GFPFDDYAMH / GIMWNSGSIGYADSVK / VGRGGGYFDS the result was 2.69, 4.71, 3.49.
With GFTFDDYAMA / GISWNSGSIGYADSVK / VGRGGGYFDG the result was 3.50, 4.70, nd.
With GYTFDDYAMH / GISWNSGSIGYADSVK / VGRGGGYFYT the result was 4.82, nd, nd.
With GFTFDDYAMH / GISWNSGSIGYAGSVK / VGRGGGYFDN the result was nd, nd, nd.
With GFTFDDYAMH / GISWVSGSIGYADSVK / VGRDGGYFDR the result was 5.55, nd, nd.
With GFTFDDYAMH / GISWNSGSIGYADWVK / VCRGGGYFDE the result was 4.08, nd, nd.
With GFTFDDYAMH / GIGWNSGSIGYADSVK / VGRGGGYLDQ the result was 2.10, 2.15, 2.32.
With GFTFDDYAMH / GISWNSGSIGLSDSVK / VGRGGGYFDW the result was 4.97, 5.19, 6.08.
With GFTFDDYAMH / GISINSGSIGYADSVK / VGRGGGYFAK the result was 4.74, nd, nd.
With GFTFDHYNMH / GISWNSGSIGYADSVK / VGRGGGYFDA the result was nd, nd, nd.
With GFTFADYAMQ / GISWNSGSIGYADSVK / VGRGGGYFDD the result was 4.30, nd, nd.
With GFTFDDYAML / GISWNSGWIGYADSVK / VGRGGGYFDA the result was nd, nd, nd.
With GFTFDDNAMH / GISWNSGSSGYADSVK / VGRGGGYFDE the result was 3.22, 2.72, 3.04.
With QFTFDDYAMH / GISWNSGSIGYADSVK / VGRGGGNFDR the result was 5.01, nd, nd.
With GFTFDDYAMH / GISWNSGSIGRADSVK / VGRGGGYFWP the result was nd, nd, nd.
With GFTIDDYAMH / GISCNSGSIGYADSVK / VGRGGGYFDP the result was 4.40, nd, 4.48.
With GFTFDDYAGH / GISWNSGSIGYADSGK / VGRGGGYFDG the result was nd, 5.58, nd.
With GYTFDDYAMH / GISWNSGSIGYADSVK / VGRGWGYFDP the result was 1.14, 1.23, 0.55.

Picked from the list: the 4 lowest averages where every replicate gave a value.

The variant GYTFDDYAMH / GISWNSGSIGYADSVK / VGRGWGYFDP gave 1.14, 1.23, 0.55.
The variant GFSFDDYAMH / GISWNSGSIGYADSVK / VGRGGGYFDK gave 1.26, 1.26, 0.96.
The variant GGTFDDYAMH / GISWNSGSFGYADSVK / VGRGGGYFDC gave 1.71, 1.53, 1.02.
The variant GFTFDDYAMH / GIGWNSGSIGYADSVK / VGRGGGYLDQ gave 2.10, 2.15, 2.32.

Three control strains display no target. For library AAYL51, 21% of the pairings with them gave a signal, with a median of 4.54 and one signal in twenty below 3.26, so weak values seen in few replicates may be background.
Parent in this assay: reference entry 1.86, copy in this library 0.88.

The measurements come from Engelhart et al. 2022 (doi:10.1038/s41597-022-01779-4) through the FLAb antibody collection.